Ki data for 1 molecule are collected here from ChEMBL document CHEMBL1149657, “Benzylamine histamine H(3) antagonists and serotonin reuptake inhibitors” (Bioorg Med Chem Lett, 2007).

Protein sequences, listed by entry. Tags and fused reporters are not part of them. Lines headed by an entry give the natural chain unless they say otherwise; changes in a name come on top.
UniProt Q9Y5N1: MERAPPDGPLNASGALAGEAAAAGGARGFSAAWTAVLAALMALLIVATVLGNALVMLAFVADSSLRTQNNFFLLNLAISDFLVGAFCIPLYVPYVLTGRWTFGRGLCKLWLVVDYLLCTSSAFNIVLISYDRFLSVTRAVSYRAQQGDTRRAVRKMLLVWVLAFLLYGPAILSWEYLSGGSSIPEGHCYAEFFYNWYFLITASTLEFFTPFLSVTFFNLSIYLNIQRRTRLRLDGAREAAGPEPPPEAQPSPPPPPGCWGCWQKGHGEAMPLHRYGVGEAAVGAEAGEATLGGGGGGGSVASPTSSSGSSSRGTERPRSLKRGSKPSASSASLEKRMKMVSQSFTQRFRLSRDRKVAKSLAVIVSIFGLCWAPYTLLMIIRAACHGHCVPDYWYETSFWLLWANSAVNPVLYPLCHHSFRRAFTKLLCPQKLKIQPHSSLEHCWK

pKi: −log10 of the molar value.

In this assay the target is Histamine H3 receptor (Homo sapiens, UniProt Q9Y5N1). The experiment in a line: Binding affinity to human histamine H3 receptor.

As a reminder, the pKi is the negative decadic logarithm of the Ki, by convention in mol/L. Low readings indicate a large Ki, high ones a small Ki. Take `COc1ccc([C@@H]2CN(C)Cc3cc(OCCCN4CCC(F)CC4)ccc32)cc1`: the pKi was 8.40.
